The record followed here is patent EP0282292B1, “Improved chelator for anaerobic sealants” (LOCTITE (IRELAND) Ltd., priority 1987, dated 1988).

Read-outs that look alike come from different tables or passages of the source.

As to “diethylenetriaminepentaacetic acid pentasodium salt [DTPA Na₅]”, under “1% Maleic Acid in PEGMA”, the “chelator concentration, Sampled after 0.5hr. standing-supernatant liquid taken” value was 0 ppm; the “chelator concentration, Stirred 0.5hr. mixture sampled” value is 739 ppm; the “chelator concentration, supernatant after 4 days standing” value came to 30 ppm; the “chelator concentration, supernatant after 5 days standing” value was determined as 25 ppm. Moreover, where the note is “3% Saccharin in PEGMA”, the “chelator concentration, Sampled after 0.5hr. standing-supernatant liquid taken” value was determined as 14 ppm; the “chelator concentration, Stirred 0.5hr. mixture sampled” value is given as 650 ppm; the “chelator concentration, supernatant after 4 days standing” value turned out to be 15 ppm; the “chelator concentration, supernatant after 5 days standing” value is on record as 25 ppm.
